Like-named read-outs stand apart in the source and are kept apart here.
Legend:
blood cell fraction = assay: TDR-test in vitro, blood of patient B. (Example 2); format: cell-based, human; conditions: for increase in TDR: after 24 h of incubation
Method: Individual selection of anticancer chemotherapy was based on testing the dynamics of TDR in blood with cytostatics—Etoposide (in single therapeutic doses 80-100-120 mg/m2), Cisplatin (25-50-75-100 mg/m2), Carboplatin (150-300-450 mg/m2), Gemcitabine (800-1000-1200 mg/m2), Navelbine (25-30-35 mg/m2), Doxorubicin (20-30-40 mg/m2), Epidoxorubicin (50-70-90 mg/m2), Mitomycin C (4-6-8 mg/m2).

whole blood = assay: TDR-test in vitro, blood of patient G. (Example 1); format: cell-based, human; conditions: 1st hour, dose 2 million IU
[1] = intramuscular introduction; cited from earlier work
[2] = test system: chronic hepatitis C (CHC); conditions: CHC patients, cited from earlier work
whole heparinized blood = conditions: patients with CHC viral genotype 1b; cited from earlier work

## IL-2: Interleukin-2, immunoactive drug
Blood cell fraction; after 1 hour of incubation, dose 500 000 IU
  increase in TDR compared with the control: 25%
Blood cell fraction; dose 500 000 IU
  increase in TDR: 467%

## Laferon: immunocorrective drug, dosed in million IU, intramuscular
Whole blood
  TDR increase compared to the control: 30%
[1]
  bioavailability: 90%
Blood cell fraction; dose 2 000000 IU
  increase in TDR: 287%

## Reaferon: russian interferon drug
[2]; after 6 months of individual therapy with interferon drugs alone
  frequency of complete remission: 75.9%
[2]; after 12 months of individual therapy with interferon drugs alone
  frequency of complete remission: 62%
Whole heparinized blood
  proportion of patients sensitive in vitro: 16.7%
